Test results reported in patent publication US20210057047A1, “IN-SILICO METHOD FOR DESIGNING A (D)-POLYPEPTIDE LIGAND” (THE GOVERNING COUNCIL OF THE UNIVERSITY OF TORONTO, priority 2018, published 2021).

By UniProt entry, the sequences of proteins in these tests, tags left out. Residues count along the entry.
UniProt P06873, 106-384: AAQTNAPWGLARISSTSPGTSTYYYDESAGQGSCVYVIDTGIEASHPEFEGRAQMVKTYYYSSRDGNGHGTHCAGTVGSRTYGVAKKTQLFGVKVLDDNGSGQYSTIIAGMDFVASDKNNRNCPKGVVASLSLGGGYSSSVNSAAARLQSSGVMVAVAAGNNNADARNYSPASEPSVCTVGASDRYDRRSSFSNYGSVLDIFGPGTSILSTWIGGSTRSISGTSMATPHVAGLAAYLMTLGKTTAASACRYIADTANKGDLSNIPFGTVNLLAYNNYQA

Biological target: T1, Proteinase K (ProtK) (Parengyodontium album, UniProt P06873)
T1 construct: purchased Bioshop
Assay type: in vitro ADME
Protocol: Stocks of 20 μM peptide in 200 μL total volume (10 mM Tris-base, 10 mM NaCl, pH 7.4) were supplemented with 5 μM CaCl2) and 30 uL removed for the untreated T0 sample. Proteinase K (ProtK, Bioshop) was then added to a final concentration of 100 μg/mL. Samples were incubated at 37° C. and 30 μL removed after each time point and protease activity blocked by the addition of 10 mM PMSF (200 mM stock dissolved in isopropanol). Protease inactivated samples were frozen at −20° C. until further use. Digestions were repeated three times. Frozen samples were supplemented with 8 μL sample loading buffer (4× NuPAGE, ThermoFisher Scientific), boiled ([…]) for 10 minutes, and centrifuged (12 000 rpm, 10 min) prior to loading the gel (12% NuPAGE Bis-Tris (ThermoFisher Scientific) with MES running buffer). Gels were run at 200 V for […] and stained using Coomassie Brilliant Blue dye. Densitometry of bands was determined using ImageJ software (40) with back ground subtraction. All samples were normalized to their respective untreated sample (T0).

CC[C@H](C)[C@H](NC(=O)[C@H](Cc1ccccc1)NC(=O)[C@H](CCC(=O)O)NC(=O)[C@H](CCCCN)NC(=O)[C@H](C)NC(=O)[C@H](C)NC(=O)[C@H](CCC(N)=O)NC(=O)CNC(=O)[C@H](CCC(=O)O)NC(=O)[C@H](CC(C)C)NC(=O)[C@H](Cc1ccc(O)cc1)NC(=O)[C@H](CO)NC(=O)[C@H](CO)NC(=O)[C@@H](NC(=O)[C@H](CC(=O)O)NC(=O)[C@H](CO)NC(=O)[C@@H](NC(=O)[C@H](Cc1ccccc1)NC(=O)[C@@H](NC(=O)CNC(=O)[C@H](CCC(=O)O)NC(=O)[C@H](C)NC(=O)[C@@H](N)Cc1cnc[nH]1)[C@@H](C)O)[C@@H](C)O)C(C)C)C(=O)N[C@@H](C)C(=O)N[C@@H](Cc1c[nH]c2ccccc12)C(=O)N[C@@H](CC(C)C)C(=O)N[C@H](C(=O)N[C@@H](CCCCN)C(=O)NCC(=O)N[C@@H](CCCNC(=N)N)C(=O)O)C(C)C [(L)-GLP1]
time to total loss of peptide (exposure to ProtK, 37° C.): < 1 h | degradation by ProtK (in words) (treatment with ProtK over 5 hours): rapid degradation
